{
  "sequences": {"note": "Amino acid sequences for entries named in this document (tags omitted).", "UniProt P32300, whole entry": "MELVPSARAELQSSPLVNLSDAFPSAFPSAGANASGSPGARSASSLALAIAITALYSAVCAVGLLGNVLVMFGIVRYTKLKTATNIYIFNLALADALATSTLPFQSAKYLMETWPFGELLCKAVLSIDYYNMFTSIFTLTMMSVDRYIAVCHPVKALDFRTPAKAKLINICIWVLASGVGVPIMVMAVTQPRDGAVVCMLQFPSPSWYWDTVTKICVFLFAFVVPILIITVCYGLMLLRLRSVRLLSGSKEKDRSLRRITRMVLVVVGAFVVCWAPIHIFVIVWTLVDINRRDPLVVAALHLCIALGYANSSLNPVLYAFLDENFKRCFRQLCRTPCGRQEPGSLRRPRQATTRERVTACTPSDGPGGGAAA"},
  "source": "patent US6359111B1",
  "about": "“Opioid receptor targeting” (NeoRx Corporation, priority 1998, dated 2002)",
  "target": "Delta-Opioid Receptor (Mus musculus, UniProt P32300)",
  "assay": "Delta-opioid receptor binding: inhibition of specific binding of 3H NID to intact NG108-15 cells",
  "data": [
    {"compound": "CN(C)c1ccc2c(-c3ccc(C(=O)NCCCCCNC(=O)CCCCCNC(=O)Cn4c5c(c6ccccc64)CC4(O)C6Cc7ccc(O)c8c7C4(CCN6CC4CC4)C5O8)cc3C(=O)O)c3ccc(N(C)C)cc3[o+]c2c1", "note": "(stereo not shown)", "values": [
      {"measurement": "EC50", "setting": "competition with 3H NID, intact NG108-15 cells, 2 hr at 37° C.", "value": 16, "unit": "nM"},
      {"measurement": "Log EC80 (±S.E.)", "setting": "competition with 10^−9 M 3H NID stock, intact NG108-15 cells, 2 hr at 37° C., log molar concentration, one site competitive binding fit, negative sign printed", "value": "−7.8 ± 0.1"},
      {"measurement": "Test/Control", "setting": "ratio of EC50 of test compound to EC50 of NID in the same test", "value": 8.9},
      {"measurement": "fold lower in affinity than NID", "setting": "summary of Table 1", "value": "about 9 fold"}
    ]}
  ]
}
